Measured values: publication PMC9325274, “In Vitro and In Silico Investigation of Diterpenoid Alkaloids Isolated from Delphinium chitralense” (Molecules, 2022)

The chains behind the UniProt entries cited, without tags or fusion partners. Residues count along the entry.
UniProt O42275, 24-633: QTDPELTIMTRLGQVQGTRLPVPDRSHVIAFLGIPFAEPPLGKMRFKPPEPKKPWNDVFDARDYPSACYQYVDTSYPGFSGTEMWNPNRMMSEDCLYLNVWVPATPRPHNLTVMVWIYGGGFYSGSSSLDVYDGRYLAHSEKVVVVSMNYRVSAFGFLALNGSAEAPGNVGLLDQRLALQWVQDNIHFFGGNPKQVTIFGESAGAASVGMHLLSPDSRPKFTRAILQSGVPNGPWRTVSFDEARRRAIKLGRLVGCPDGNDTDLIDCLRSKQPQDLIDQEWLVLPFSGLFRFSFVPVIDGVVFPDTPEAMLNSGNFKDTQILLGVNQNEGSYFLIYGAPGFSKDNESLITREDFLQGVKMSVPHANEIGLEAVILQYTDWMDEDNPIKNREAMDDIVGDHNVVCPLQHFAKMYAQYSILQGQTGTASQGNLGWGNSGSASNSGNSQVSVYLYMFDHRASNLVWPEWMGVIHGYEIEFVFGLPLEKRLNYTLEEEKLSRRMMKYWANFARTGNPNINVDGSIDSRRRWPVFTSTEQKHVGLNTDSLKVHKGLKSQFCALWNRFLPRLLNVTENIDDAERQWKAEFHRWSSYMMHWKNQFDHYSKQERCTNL
UniProt P81908, whole entry: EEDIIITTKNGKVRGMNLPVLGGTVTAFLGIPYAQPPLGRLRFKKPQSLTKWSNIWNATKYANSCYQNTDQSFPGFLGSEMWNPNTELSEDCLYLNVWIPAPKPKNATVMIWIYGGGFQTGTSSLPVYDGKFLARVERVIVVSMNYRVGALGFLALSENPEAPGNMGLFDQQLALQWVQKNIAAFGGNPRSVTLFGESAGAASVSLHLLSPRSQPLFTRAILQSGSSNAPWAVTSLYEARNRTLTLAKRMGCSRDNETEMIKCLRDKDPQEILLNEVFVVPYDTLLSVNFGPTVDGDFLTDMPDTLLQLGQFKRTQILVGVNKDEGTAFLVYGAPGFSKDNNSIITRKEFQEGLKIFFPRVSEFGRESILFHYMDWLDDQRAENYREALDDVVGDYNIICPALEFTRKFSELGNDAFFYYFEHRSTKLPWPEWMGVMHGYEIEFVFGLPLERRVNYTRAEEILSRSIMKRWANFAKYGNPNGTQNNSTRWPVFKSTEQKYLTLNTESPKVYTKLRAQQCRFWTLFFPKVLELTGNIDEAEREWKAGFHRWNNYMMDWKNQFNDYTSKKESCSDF

Legend:
[1] = molecular target: AChE (Electric-eel EC 3.1.1.7) (Electrophorus electricus, UniProt O42275); conditions: read-out: AChE ± SEM (IC50), SEM of five assays
[2] = molecular target: BChE (horse serum EC 3.1.1.8) (Equus caballus, UniProt P81908); conditions: read-out: BChE ± SEM (IC50), SEM of five assays

Substance: Allanzanthane A [reference compound]
- IC50 [1]: 8.23 ± 0.01 µM
- IC50 [2]: 18 ± 0.06 µM
